# Measured values taken from patent publication US6979572B1, “Compositions and methods for inhibiting inward-rectifier potassium channels” (Trustees of the University of Pennsylvania, priority 1998, dated 2005).
# Columns and labels:
# ROMK1 P120A channel = biological target: T1, ROMK1 P120A channel (Rattus norvegicus, UniProt P35560, P120A); test: Two-electrode voltage clamp of ROMK1 mutant P120A (equilibrium and kinetics); assay type: cell-based; details: averaged 1/τoff
# T1 construct: expressed in transfected cells; host or cells: Xenopus laevis oocytes (cRNA injection)
# T1 sequence (P35560 1-391 P120A): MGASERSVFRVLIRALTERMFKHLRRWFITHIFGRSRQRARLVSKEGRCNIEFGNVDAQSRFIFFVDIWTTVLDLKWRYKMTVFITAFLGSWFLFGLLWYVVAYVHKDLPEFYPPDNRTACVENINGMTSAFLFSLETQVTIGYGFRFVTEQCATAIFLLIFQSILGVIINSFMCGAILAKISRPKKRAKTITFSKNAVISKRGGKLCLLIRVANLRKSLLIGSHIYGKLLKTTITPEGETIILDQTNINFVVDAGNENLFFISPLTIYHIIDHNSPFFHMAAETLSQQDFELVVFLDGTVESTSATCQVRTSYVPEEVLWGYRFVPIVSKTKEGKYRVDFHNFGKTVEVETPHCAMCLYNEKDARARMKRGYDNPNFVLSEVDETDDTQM
# Text: To identify all potential interaction residues in the M1-M2 linker and thus delineate the toxin receptor, the entire M1-M2 linker in the ROMK1 channel was alanine scanned. All the residues in the M1-M2 linker were replaced one at a time with alanine, or valine when the native residue is alanine (Clackson, T. and Wells, J. A. Science 1995 267:383–386). Alanine has the smallest side-chain with the exception of glycine. Since glycine may introduce instability to a protein, an alanine substitution is generally used in an attempt to remove most side-chain interactions.
# The fraction of unblocked currents through the wild-type and five mutant channels were plotted against the concentration of TPNQ. […]
# The rate constant for TPNQ (and TPN) binding to the ROMK1 channel is rather large. Consequently, the rates of the channel inhibition by TPNQ at concentrations producing measurable channel inhibition were too fast to be accurately determined using the recording system described herein. […]
# All three inward-rectifier K^+ channels, GIRK1/4, ROMK1, and IRK1, were studied using a two-electrode voltage clamp amplifier (Oocyte Clamp OC-725C, Warner Instruments Corp.). […] Tertiapin concentration was calculated using an extinction coefficient 6.1 mM^−1 cm^−1 at 280 nm wavelength. […]
# GIRK1/4 channel = biological target: T2, GIRK1/4 channel (Rattus norvegicus, UniProt P48548+P63251); test: cell-based; assay type: cell-based; details: each at 10 nM; read-out: inhibition of the GIRK1/4 current
# T2 construct: expressed in transfected cells; host or cells: Xenopus laevis oocytes (cRNA injection)
# T2 sequence (P63251 1-501): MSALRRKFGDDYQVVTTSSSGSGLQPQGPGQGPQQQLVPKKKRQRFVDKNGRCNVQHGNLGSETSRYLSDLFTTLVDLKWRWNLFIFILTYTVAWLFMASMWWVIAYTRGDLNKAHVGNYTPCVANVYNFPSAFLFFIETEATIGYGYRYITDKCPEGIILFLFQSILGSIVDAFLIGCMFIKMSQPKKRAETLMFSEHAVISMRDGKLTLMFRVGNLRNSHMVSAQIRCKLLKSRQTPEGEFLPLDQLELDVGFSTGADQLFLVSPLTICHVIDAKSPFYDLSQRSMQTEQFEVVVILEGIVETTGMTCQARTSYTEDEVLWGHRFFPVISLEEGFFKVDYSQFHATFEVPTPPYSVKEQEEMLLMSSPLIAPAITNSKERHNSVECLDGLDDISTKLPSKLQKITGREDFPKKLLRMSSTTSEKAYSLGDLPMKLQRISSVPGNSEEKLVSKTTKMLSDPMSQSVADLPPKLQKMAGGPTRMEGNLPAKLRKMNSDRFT
# T2 sequence (P48548 1-419): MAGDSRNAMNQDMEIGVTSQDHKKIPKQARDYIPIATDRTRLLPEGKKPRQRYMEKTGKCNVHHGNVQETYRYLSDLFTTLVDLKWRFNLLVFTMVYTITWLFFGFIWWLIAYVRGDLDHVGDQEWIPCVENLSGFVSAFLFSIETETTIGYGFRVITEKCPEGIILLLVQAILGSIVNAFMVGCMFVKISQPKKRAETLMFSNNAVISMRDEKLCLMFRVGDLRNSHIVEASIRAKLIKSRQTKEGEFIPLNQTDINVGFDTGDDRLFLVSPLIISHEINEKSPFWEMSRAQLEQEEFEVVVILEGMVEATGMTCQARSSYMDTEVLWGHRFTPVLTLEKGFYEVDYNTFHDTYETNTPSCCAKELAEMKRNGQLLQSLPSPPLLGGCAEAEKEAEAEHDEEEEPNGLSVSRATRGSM
Structure (SMILES),koff (ROMK1 P120A channel),inhibition at 0.01 µM (GIRK1/4 channel)
CC[C@H](C)[C@@H]1NC(=O)[C@H](CCCNC(=N)N)NC(=O)[C@H](CC(N)=O)NC(=O)[C@@H]2CSSC[C@@H](C(=O)NCC(=O)N[C@@H](CCCCN)C(=O)N[C@@H](CCCCN)C(N)=O)NC(=O)[C@H](CCCCN)NC(=O)[C@H](CCCCN)NC(=O)[C@H](Cc3c[nH]c4ccccc34)NC(=O)[C@H](CSSC[C@H](NC(=O)[C@H](CC(C)C)NC(=O)[C@H](C)N)C(=O)N[C@@H](CC(N)=O)C(=O)N2)NC(=O)[C@H](CCC(N)=O)NC(=O)[C@H](Cc2c[nH]cn2)NC(=O)[C@@H]2CCCN2C(=O)[C@H]([C@@H](C)CC)NC(=O)[C@H]([C@@H](C)CC)NC1=O [TPNQ],0.024 s⁻¹,–
"CC[C@H](C)[C@@H]1NC(=O)[C@H](CCCNC(=N)N)NC(=O)[C@H](CC(N)=O)NC(=O)[C@@H]2CSSC[C@@H](C(=O)NCC(=O)N[C@@H](CCCCN)C(=O)N[C@@H](CCCCN)C(N)=O)NC(=O)[C@H](CCCCN)NC(=O)[C@H](CCCCN)NC(=O)[C@H](Cc3c[nH]c4ccccc34)NC(=O)[C@H](CSSC[C@H](NC(=O)[C@H](CC(C)C)NC(=O)[C@H](C)N)C(=O)N[C@@H](CC(N)=O)C(=O)N2)NC(=O)[C@H](CCSC)NC(=O)[C@H](Cc2c[nH]cn2)NC(=O)[C@@H]2CCCN2C(=O)[C@H]([C@@H](C)CC)NC(=O)[C@H]([C@@H](C)CC)NC1=O [native tertiapin, tertiapin]",–,~50%
